Test results reported in patent US20250313577A1, “TRICYCLIC PYRIDONES AND PYRIMIDONES” (ERASCA, INC, priority 2022, published 2025).

Amino acid sequences for entries named in this document (tags omitted). Residues count along the entry.
UniProt P01116, 1-188 isoform 2 G12C: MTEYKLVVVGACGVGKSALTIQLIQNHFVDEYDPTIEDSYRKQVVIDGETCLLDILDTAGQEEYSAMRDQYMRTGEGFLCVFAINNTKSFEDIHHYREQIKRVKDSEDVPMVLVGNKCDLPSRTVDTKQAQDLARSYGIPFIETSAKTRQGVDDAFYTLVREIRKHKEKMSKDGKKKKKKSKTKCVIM

Target: KRAS G12C (Homo sapiens, UniProt P01116, G12C)
Assay: phospho-ERK HTRF assay in Ras Initiative (RI) KRAS G12C cells
Conditions: read-out: pERK (RI) nM, phospho-ERK1/2 HTRF, 11-point dose response from 2,500 nM, treatment for either 4 hours or 16 hours
Experimental: Inhibition of KRAS G12C-Mediates Phospho-ERK1/2 Inhibition by Compounds of Formula I
This Example illustrates that various compounds of the present disclosure inhibit KRAS G12C thereby mediating the downstream inhibition of phospho-ERK1/2.
KRAS G12C mutant cell lines, NCI H358 (ATCC, CRL-5807), and Ras Initiative (R1) KRAS G12C were cultured according to published protocols and maintained at 37° C. in 5% CO2. The phospho-ERK HTRF assay was executed following provider's protocol (CisBio #64AERPEH). NCI-H358 or RI KRAS G12C cells were plated at a density of 50,000 cells per well in a 96-well plate (Corning #3903) in respective medias (for NCI-H358, RPMI+10% FBS+1% Pen/Strep, and for RI KRAS G12C, DMEM+10% FBS+1% Pen/Strep+4 ug/ml Blasticidin) and maintained at 37° C. in 5% CO2. Cells were allowed to adhere overnight and treated the following day with a Tecan D300e Digital Dispenser (Tecan Group Ltd., Switzerland) using an 11-point dose response starting at 2,500 nM of exemplified compounds followed by sequential 1:3 dilutions for either 4 hours or 16 hours. Following compound treatment, the cells were washed once with ice-cold PBS. Cells were lysed by adding 50 μl of lysis buffer (1×) supplemented with 1× Pierce Halt Protease and Phosphatase inhibitor and incubated for 30 minutes at 4° C. with shaking. After lysis, 16 μL of cell lysate from the 96-well cell-culture plate was transferred to a 384-well plate (Perkin Elmer #6007290). The premixed antibody solution was prepared by mixing (vol/vol) advanced phospho-ERK1/2 d2 antibody and advanced phospho-ERK1/2 Eu Cryptate antibody. The premixed antibody solution ([…]) was added to the detection plate containing cell lysate. The detection plate was incubated overnight at 4° C., the HTRF signal was read the next day by using either a Spectramax M5 or Spectramax i3 microplate reader (Molecular Devices, San Jose, CA, USA), and data was processed according to manufacturer's protocol.
Compounds prepared according to the preceding procedures and characterized for inhibition of p-ERK according to the protocol provided herein are summarized in Table 3: […]

IC50 [nM]	SMILES
20 to 250	C=CC(=O)N1C(C)CN(c2nc(=O)n3c4c(c(-c5ccc(F)cc5)c(C(F)(F)F)cc24)SCC(c2ccsc2)C3)CC1C (single isomer, unassigned) [Example 123]
> 250	C=CC(=O)N1[C@H](C)CN(c2nc(=O)n3c4c(c(-c5cc(Cl)c(F)cc5F)c(C(F)(F)F)cc24)SC[C@H](c2cccnc2)C3)C[C@@H]1C [105B]
20 to 250	C=CC(=O)N1[C@H](C)CN(c2nc(=O)n3c4c(c(-c5ccc(F)cc5)c(C(F)(F)F)cc24)SC[C@H](c2ccc(F)cc2)C3)C[C@@H]1C
20 to 250	C=CC(=O)N1[C@H](C)CN(c2nc(=O)n3c4c(c(-c5ccc(F)cc5F)c(C(F)(F)F)cc24)SC[C@H](c2ccc(F)cc2)C3)C[C@@H]1C (atropisomer, axis not shown) [Example 118]
20 to 250	C=CC(=O)N1[C@H](C)CN(c2nc(=O)n3c4c(c(-c5ccc(F)cc5F)c(C(F)(F)F)cc24)SC[C@@H](c2ccc(F)cc2)C3)C[C@@H]1C [120]
2 to 20	C=CC(=O)N1[C@H](C)CN(c2nc(=O)n3c4c(c(-c5ccc(F)cc5F)c(C(F)(F)F)cc24)SC[C@@H](c2ccc(F)cc2)C3)C[C@@H]1C [121]
2 to 20	C=CC(=O)N1[C@H](C)CN(c2nc(=O)n3c4c(c(-c5cc(Cl)c(F)cc5F)c(C(F)(F)F)cc24)SC[C@H](c2ccncc2)C3)C[C@@H]1C
2 to 20	C=CC(=O)N1C(C)CN(c2nc(=O)n3c4c(c(-c5ccc(F)cc5)c(C(F)(F)F)cc24)SCC(c2ccsc2)C3)CC1C (single isomer, unassigned) [Example 122]
20 to 250	C=CC(=O)N1[C@H](C)CN(c2nc(=O)n3c4c(c(-c5cc(Cl)c(F)cc5F)c(C(F)(F)F)cc24)SC[C@H](c2cccnc2)C3)C[C@@H]1C [105A]
20 to 250	C=CC(=O)N1[C@H](C)CN(c2nc(=O)n3c4c(c(-c5cc(Cl)c(F)cc5F)c(C(F)(F)F)cc24)SC[C@H](c2cncc(F)c2)C3)C[C@@H]1C
